{
  "source": "patent US20110257116A1",
  "about": "“BIOSURFACTANT-CONTAINING SKIN CARE COSMETIC AND SKIN ROUGHNESS-IMPROVING AGENT” (National Institute Of Advanced Industrial Science And …, priority 2005, published 2011)",
  "experiment": "Dispersion stability test in water (absorbance at 650 nm)",
  "type": "physicochemical",
  "details": "10 mg/mL in water, stirred and suspended, FIG. 6",
  "protocol": "MEL-B or MEL-C at a concentration of 10 mg/mL was added to water, stirred and suspended. Its absorbance at 650 nm was measured.",
  "note": "Entries after “also recorded” stand apart in the source; their conditions may differ.",
  "data": [
    {"substance": "mannosylerythritol lipid B [MEL-B]", "values": [
      {"measurement": "dispersion stability", "result": "particularly excellent in dispersion stability; also recorded: more excellent than MEL-A in water dispersion stability"}
    ]}
  ]
}
